According to PubChem BioAssay AID1347430 (National Center for Advancing Translational Sciences (NCATS), 2020):
Where “and” joins values, the source holds several entries; their conditions need not be identical. Equal values may be shown once. The entries are a selection whose mix differs from that of the whole data set. Calls of active or inactive are those of the source. Calls follow the shape of the dose curve; as a rule, active = well fitted inhibition curve with a large enough effect; inconclusive = small, poorly fitted or top-dose-only effect; inactive = flat fitted curve, though single readings scatter.

tested on: Uracil-DNA glycosylase; assay: Primary qHTS assay for inhibitors of Activation Induced Cytidine Deaminase (AID): UDG Counterscreen signal; settings: FRET deamination/UDG coupled assay, UDG read, 4 h; at 115 µM (top of the series); also: nearly all actives have a fitted effect of over 65% in size
Excerpt: Assay Provider (PI) Patricia Gearhart Ph.D.
National Institute on Aging
National Institute of Health (NIH), Bethesda, MD
Assay Provider (PI) Rahul Kohli Ph.D.
Perelman School of Medicine
University of Pennsylvania, Philadelphia, PA
Activation-Induced Deaminase (AID) is a cytosine deaminase which converts cytosine into uracil within stretches of ssDNA. The presence of uracil in DNA initiates a cascade of mutagenic DNA repair to introduce point mutations and DNA double strand breaks. Specific targeting of AID to the immunoglobulin heavy chain loci (Igh) promotes mutagenesis in the antibody variable region for somatic hypermutation (SHM) or switch regions leading to class switch recombination (CSR). However, AID also plays a role in accumulating unnecessary mutations across the genome. Mis-targeting of AID results in the initiation of tumor development and leads to greater drug resistance among cancer cells when continually expressed. To identify an AID inhibitor, a small molecule library will be screened in collaboration with NCATS core facility at NIH. To confirm biological function, inhibitors will be examined in an in vitro murine B-cell activation assay and subsequent secondary validation screens. Top molecules will be further screened to identify inhibitory efficacy against a wild type primary splenocytes assay. Using these approaches, we hope to identify a small molecule with great efficacy and low toxicity for use as a molecular probe to further characterize AID's intricacies, or even as a therapeutic.
A FRET based analysis of cytosine deamination, was developed to identify potential inhibitors of AID catalytic activity. This screen has two signal output, Read 1 evaluates the AID inhibition response. The second readout (Read 2) evaluates UDG response and is uses as a counterscreen to exclude false positive inhibitors. Inhibition in AID and inactivity in the UDG signal is the desired outcome for this assay.
SEQUENCE No. (e.g., 1, 2, 3, etc.); […] (e.g., Cells, Incubation, Reagent, etc.); VALUE; DESCRIPTION
1a; Reagent; 3 uL; [4/3x] 1 uM AID/2.67 U/mL UDG
1b; Reagent; 3 uL; 2 U/mL UDG
1c; Reagent; 3 uL; 1 uM AID
2a; Compound; 46 nL; Follow-up plates (0.64 uM - 10 mM)
2b; Control; 46 nL; ATA ([…] - 10 mM)
3; Time; 10 min; incubation at room temperature
5; Time; 4 hr; incubation at room temperature
6; Reagent; 4 uL; [2x] 250 mM NaOH
7; Time; 15 sec; centrifuge at 1000 rpm
8; Time; 30 min; incubation at room temperature
9a; Detection; fluorescence (Read 1: AID); EnVision (PerkinElmer) plate reader, 540 excitation and 590 emission filters
9b; Detection; fluorescence (Read 2: UDG); EnVision (PerkinElmer) plate reader, 560 excitation and 665 emission filters
NOTES (numbers refer to sequence above)
1a; Reagents were dispensed in a medium-binding black solid-bottom Greiner plates (789176F) using a BioRptr liquid dispenser. Dispense 3 uL of [4/3x] 1 uM AID (provided by Kohli lab) and [4/3x] 2 U/mL UDG (NEB M0280L) into columns 1, 2, 5 to 48.
1b; Dispense 3 uL of [4/3x] 2 U/mL UDG into column 3.
1c; Dispense 3 uL of [4/3x] 1 uM AID into column 4.
2a; Compound (7-points [uM] (0.64; 3.2; 16; 80; 400; 2,000; 10,000; 20,000) double pin-transferred (Dip Factor = 2) using the Kalypsys (Wako USA) pintool equipped with a 1536 pinhead for a final concentration range of 7.32 nM - 114 uM.
2b; 10 mM Aurintricarboxylic Acid (Sigma A1895) (ATA, 8-point, n = 2, 1:2.5 dilution in column 2) double pin-transferred (Dip Factor = 2) using the Kalypsys (Wako USA) pintool equipped with a 1536 pinhead for a [final] range of 186 nM - 114 uM.
3; Room temperature incubation.
4; Dispense 1 uL of substrate mixture from the Kohli lab [4x] […] DJC20 and [4x] 250 nM DJC23 into columns 1 to 48 .
5; Room temperature incubation.
6; Dispense 4 uL of substrate mixture [2x] 250 mM NaOH into columns 1 to 48.
7; Centrifugation step to remove bubbles.
8; Room temperature incubation
9a; Fluorescence signal (column label AID) was read using the EnVision plate reader. […]
% is scaled to controls: 0 for no effect and ±100 for the full control effect.

SMILES	activity change, negative = inhibition
CN(CCCl)Cc1cc(Cl)c(NC2=NCCN2)c(Cl)c1	inactive: 7.7%
ClCCNC1C2CC3CC(C2)CC1C3 (stereo not drawn)	inactive: -10.6%
Fc1ccc(NC2=NCC(CI)S2)c(F)c1 (stereo not drawn)	inactive: 5.99%
BrCC1CN=C(Nc2ccccc2)S1 (stereo not drawn)	inactive: -1.03%
CN(C(=O)Cc1ccc(Cl)c(Cl)c1)[C@@H]1CC[C@]2(CCCO2)C[C@H]1N1CCCC1	inactive: -7.91%
NNc1ccc([N+](=O)[O-])cc1[N+](=O)[O-]	inactive: -21.4%
Cc1ccc(C(=O)NC(Sc2ccc(Cl)cc2)C(Cl)(Cl)Cl)cc1 (stereo not drawn)	inactive: -2.54%
CN(C(=O)Cc1ccccc1)[C@@H]1CC[C@]2(CCCO2)C[C@H]1N1CCCC1	inactive: -4.33%
Cc1ccc(C(=O)NC(Sc2ccccc2)C(Cl)(Cl)Cl)cc1 (stereo not drawn)	inactive: -2.27%
Fc1ccc(CNC2=NCC(CBr)S2)cc1 (stereo not drawn)	inactive: -1.62%
O=C(NC(Sc1ccccc1)C(Cl)(Cl)Cl)c1ccc(Cl)cc1 (stereo not drawn)	inactive: 2.72%
O=C(NC(Sc1ccc(Cl)cc1)C(Cl)(Cl)Cl)c1ccccc1 (stereo not drawn)	inactive: 1.5%
Cc1cccc(C(=O)NC(Sc2ccccc2)C(Cl)(Cl)Cl)c1 (stereo not drawn)	inactive: 1.71%
Clc1cccc(NC2=NCC(CBr)S2)c1 (stereo not drawn)	inactive: 1.16%
O=C(/C=C/c1ccccc1)NC(Sc1ccc(Cl)cc1)C(Cl)(Cl)Cl (stereo not drawn)	inactive: -11.6%
CN(C(=O)Cc1ccc(Cl)c(Cl)c1)[C@H]1CCCC[C@@H]1N1CCCC1	inactive: 4.33% and inactive: -1.1%
BrCCNCCc1ccncc1	inactive: -1.37%
CN(C(=O)Cc1ccc(Cl)c(Cl)c1)[C@@H]1CCCC[C@@H]1N1CCCC1	inactive: -4.42%
